The values below come from patent publication US20180258175A1 (ABLEXIS, published 2018).

The assay concerns the target T1, native CD115 on OCI-AML5 cells (UniProt P07333).
T1 construct: whole, on cells; cell line endogenous receptor; also called CD115 expressed on OCI-AML5 cells; CD115 expressing AML5 cells
Description: FACS, supernatant on OCI-AML5 cells. For orientation: In flow cytometry, cells or beads pass a laser one at a time.

B1: CCL-238A (antibody, V domains shown)
VH: QVQLVQSGAEVKKPGASVKVSCKASGYTFTGYYMHWVRQAPGQGLEWMVWINPNSGGTNYAQKFQGRVTMTRDTSISTAYMELSRLRSDDTAVYYCARGRLTFFDYWGQGTLVTVSS
VL: not shown
notes: AlivaMab chimeric IgG, human lambda LC
B1: the binding result is “binds”.
